The numbers were not newly measured in US7067251B2 (priority 2000, dated 2006), which cites them from elsewhere.

This data set has as its system C3H10T½ cells. To be noted: cited from earlier work.

For BMP-2, the “Induction in Sox9 expression” value is 4 fold.
